The text below walks through data of PubChem BioAssay AID493232 (The Scripps Research Institute Molecular Screening Center, 2011).

SMILES strings stand for the structures. The list shows a part of the results, in another mix than the full data. The source made the active and inactive calls. Cut-off read from the data, not from the text of the source: active = inhibition above about 17%; inactive = the rest.

The assay in a line: signal inhibition in parental CHO-K1 cells, counter-screen for OX1R antagonist project, cell-based, HTRF (AID 493232).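 Note: 0% = agonist challenge with vehicle and 100% = vehicle alone without agonist.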 Conditions: HTRF counterscreen, at 6.6 µM, stronger effect = higher value. Background: The purpose of a counterscreen is to sort out artefacts and off-target activity.
For the molecule `Cc1ccc(NCCc2c([N+](=O)[O-])cc([N+](=O)[O-])cc2[N+](=O)[O-])cc1`, the inhibition is active: 32%.

As to `O=[N+]([O-])c1cccc2n[nH]nc12`, the inhibition was active: 32%.

As usually defined, the inhibition is the percentage by which the read-out fell short of the control.
